{"sequences": {"note": "Protein sequences, listed by entry. Tags and fused reporters are not part of them. Residues count along the entry.", "UniProt P26010, 20-798 limits assumed": "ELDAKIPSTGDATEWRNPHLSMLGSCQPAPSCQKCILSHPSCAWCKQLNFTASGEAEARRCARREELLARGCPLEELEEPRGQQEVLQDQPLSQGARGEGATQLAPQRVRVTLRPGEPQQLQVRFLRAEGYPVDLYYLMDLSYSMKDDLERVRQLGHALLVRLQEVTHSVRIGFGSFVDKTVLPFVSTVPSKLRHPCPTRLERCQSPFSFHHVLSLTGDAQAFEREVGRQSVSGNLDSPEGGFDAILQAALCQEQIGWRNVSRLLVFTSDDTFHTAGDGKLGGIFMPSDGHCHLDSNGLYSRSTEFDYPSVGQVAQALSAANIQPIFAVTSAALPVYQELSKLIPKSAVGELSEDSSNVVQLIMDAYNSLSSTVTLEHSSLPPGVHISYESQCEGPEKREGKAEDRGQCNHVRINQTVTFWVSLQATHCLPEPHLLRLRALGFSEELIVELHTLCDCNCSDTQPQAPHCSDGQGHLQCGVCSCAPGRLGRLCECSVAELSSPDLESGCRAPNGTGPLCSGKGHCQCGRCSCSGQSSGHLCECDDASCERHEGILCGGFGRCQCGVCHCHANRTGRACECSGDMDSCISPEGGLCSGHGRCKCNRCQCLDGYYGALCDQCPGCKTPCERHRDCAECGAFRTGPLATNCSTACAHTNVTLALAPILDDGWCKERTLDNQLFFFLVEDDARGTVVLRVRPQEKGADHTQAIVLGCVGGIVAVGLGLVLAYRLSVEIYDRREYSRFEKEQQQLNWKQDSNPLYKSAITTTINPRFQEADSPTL"}, "source": "patent US7105520B2", "about": "“Phenylalanine derivatives” (Ajinomoto Co., Inc., priority 2000, dated 2006)", "key": {"integrin α 4β7": {"biological_target": "integrin α 4β7 (Homo sapiens, UniProt P13612+P26010)", "experiment": "VCAM antagonistic activity (VCAM-1/α4β7 binding assay), RPMI-8866 cells binding to VCAM-1", "conditions": "read-out: VCAM-1/α 4 β 7 linking antagonization activity IC50; RPMI-8866 cells (human B cells) binding to recombinant human VCAM-1; binding buffer containing 4 mM of MnCl2; room temperature, 30 minutes", "protocol": "(Test Example) VCAM Antagonistic Activity (VCAM-1/α4β7 Binding Assay):\nThe capacity of a test substance antagonistic to the binding of lymphoma cell strain RPMI-8866 of human B cells, known to express integrin α 4β7, to VCAM-1 was determined.\n(§1) 100 μl/well of a solution (500 ng/ml) of recombinant human VCAM-1 (R & D systems) solution diluted with buffer A (0.1 M NaHCO3, pH 9.6) was added to a micro titer plate having 96 wells (Nunc Maxisorp). After the incubation at 4° C. overnight, unbound VCAM-1 was removed by washing once with PBS. […]\nRPMI-8866 cells were incubated in DMEM containing 10 μg/ml of Calcein-AM (Wako Pure Chemical Industries, Ltd.) at 37° C. for 30 minutes to label with fluorescence. […]\n(§2) 50 μl of a test substance of various concentrations obtained by the dilution with the binding buffer was added to the plate. […] The fluorescence quantity of the bound cells remaining in the wells was determined with a fluorescent plate reader (Wallac 1420 ARVO multi-label counter) (filter excitation wave length: 485 nm, emission wave length: 535 nm). […] The binding rate of each test material in various concentrations was determined while the fluorescent strength of the test material-free well was determined to be 100%. […]"}, "integrin α 4β1": {"biological_target": "integrin α 4β1 (Homo sapiens, UniProt P05556+P13612)", "experiment": "VCAM antagonistic activity (VCAM-1/α4β1 binding assay), Jurkat cells binding to VCAM-1", "conditions": "read-out: VCAM-1/α 4 β 1 linking antagonization activity IC50; Jurkat cells (human T cells) binding to recombinant human VCAM-1; room temperature, 30 minutes", "protocol": "(Test Example) VCAM Antagonistic Activity (VCAM-1/α4β1 Binding Assay):\nThe capacity of a test substance antagonistic to the binding of cell strain Jurkat (ATCC TIB-152) of human T cells, known to express integrin α 4β1, to VCAM-1 was determined.\nas §1\nJurkat cells were washed with Dulbecco modified Eagle medium (SIGMA, hereinafter referred to as “DMEM”) twice and then incubated in DMEM containing 10 μg/ml of Calcein-AM (Wako Pure Chemical Industries, Ltd.) at 37° C. in dark place for 30 minutes to label with fluorescence. […]\nas §2"}}}
{"molecule": "O=C(N[C@@H](Cc1ccc(OCc2c(Cl)cccc2Cl)cc1)C(=O)O)c1cc(N2CCCCC2)ccc1[N+](=O)[O-]", "values": [{"measurement": "IC50", "setting": "integrin α 4β7", "value": 0.49, "unit": "µM"}, {"measurement": "IC50", "setting": "integrin α 4β1", "value": 19, "unit": "µM"}]}
